One substance from patent US4999199A, “Pharmaceutical formulations: liposomes incorporating aromatic polyene antibiotics” (priority 1988, dated 1991) can be followed below.

Data set [1] deals with mice. Put plainly: Acute toxicity of small unilamellar vesicles (SUV) of candicidin injected intravenously into mice. The settings on record: intravenous, free form solubilized in DMSO.
Data set [2] has as its system mice. The settings on record: multilamellar liposomes or free drug, intravenous infection model.

In data set [1], candicidin yielded a maximal tolerated dose of 1 mg/kg. For the same substance, the “maximal tolerated dose (MTD)” value in data set [2] worked out at 1 mg/kg.
